This test concerns the target Sulfonylurea receptor 1, Kir6.2 (Homo sapiens) (UniProt Q14654+Q09428). The experiment in a line: Percent maximal agonist response of human KATP (SUR1/Kir6.2) channel expressed in Xenopus oocytes. Type of test: functional, cell-based. The settings on record: Oocyte. In short, it runs like this:
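ATP-sensitive K+ currents were recorded by excised-patch clamp from inside-out macropatches pulled from Xenopus oocytes expressing human SUR1/Kir6.2. Compounds were tested across a dose range to give dose–response curves. […] Values are means of 3-6 experiments.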

Chains of the proteins cited; added tags and fusions are not shown. Lines headed by an entry give the natural chain unless they say otherwise; changes in a name come on top.
UniProt Q14654: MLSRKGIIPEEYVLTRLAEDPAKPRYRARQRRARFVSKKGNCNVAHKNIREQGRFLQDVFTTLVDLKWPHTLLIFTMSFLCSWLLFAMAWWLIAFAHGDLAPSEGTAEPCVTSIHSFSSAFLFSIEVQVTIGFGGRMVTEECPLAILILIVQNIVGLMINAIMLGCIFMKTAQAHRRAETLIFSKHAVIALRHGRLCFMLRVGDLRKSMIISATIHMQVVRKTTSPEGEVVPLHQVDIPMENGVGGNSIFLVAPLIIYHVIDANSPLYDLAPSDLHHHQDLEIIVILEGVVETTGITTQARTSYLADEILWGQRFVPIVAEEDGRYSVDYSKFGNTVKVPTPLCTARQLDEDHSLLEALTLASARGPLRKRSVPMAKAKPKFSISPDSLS
UniProt Q09428: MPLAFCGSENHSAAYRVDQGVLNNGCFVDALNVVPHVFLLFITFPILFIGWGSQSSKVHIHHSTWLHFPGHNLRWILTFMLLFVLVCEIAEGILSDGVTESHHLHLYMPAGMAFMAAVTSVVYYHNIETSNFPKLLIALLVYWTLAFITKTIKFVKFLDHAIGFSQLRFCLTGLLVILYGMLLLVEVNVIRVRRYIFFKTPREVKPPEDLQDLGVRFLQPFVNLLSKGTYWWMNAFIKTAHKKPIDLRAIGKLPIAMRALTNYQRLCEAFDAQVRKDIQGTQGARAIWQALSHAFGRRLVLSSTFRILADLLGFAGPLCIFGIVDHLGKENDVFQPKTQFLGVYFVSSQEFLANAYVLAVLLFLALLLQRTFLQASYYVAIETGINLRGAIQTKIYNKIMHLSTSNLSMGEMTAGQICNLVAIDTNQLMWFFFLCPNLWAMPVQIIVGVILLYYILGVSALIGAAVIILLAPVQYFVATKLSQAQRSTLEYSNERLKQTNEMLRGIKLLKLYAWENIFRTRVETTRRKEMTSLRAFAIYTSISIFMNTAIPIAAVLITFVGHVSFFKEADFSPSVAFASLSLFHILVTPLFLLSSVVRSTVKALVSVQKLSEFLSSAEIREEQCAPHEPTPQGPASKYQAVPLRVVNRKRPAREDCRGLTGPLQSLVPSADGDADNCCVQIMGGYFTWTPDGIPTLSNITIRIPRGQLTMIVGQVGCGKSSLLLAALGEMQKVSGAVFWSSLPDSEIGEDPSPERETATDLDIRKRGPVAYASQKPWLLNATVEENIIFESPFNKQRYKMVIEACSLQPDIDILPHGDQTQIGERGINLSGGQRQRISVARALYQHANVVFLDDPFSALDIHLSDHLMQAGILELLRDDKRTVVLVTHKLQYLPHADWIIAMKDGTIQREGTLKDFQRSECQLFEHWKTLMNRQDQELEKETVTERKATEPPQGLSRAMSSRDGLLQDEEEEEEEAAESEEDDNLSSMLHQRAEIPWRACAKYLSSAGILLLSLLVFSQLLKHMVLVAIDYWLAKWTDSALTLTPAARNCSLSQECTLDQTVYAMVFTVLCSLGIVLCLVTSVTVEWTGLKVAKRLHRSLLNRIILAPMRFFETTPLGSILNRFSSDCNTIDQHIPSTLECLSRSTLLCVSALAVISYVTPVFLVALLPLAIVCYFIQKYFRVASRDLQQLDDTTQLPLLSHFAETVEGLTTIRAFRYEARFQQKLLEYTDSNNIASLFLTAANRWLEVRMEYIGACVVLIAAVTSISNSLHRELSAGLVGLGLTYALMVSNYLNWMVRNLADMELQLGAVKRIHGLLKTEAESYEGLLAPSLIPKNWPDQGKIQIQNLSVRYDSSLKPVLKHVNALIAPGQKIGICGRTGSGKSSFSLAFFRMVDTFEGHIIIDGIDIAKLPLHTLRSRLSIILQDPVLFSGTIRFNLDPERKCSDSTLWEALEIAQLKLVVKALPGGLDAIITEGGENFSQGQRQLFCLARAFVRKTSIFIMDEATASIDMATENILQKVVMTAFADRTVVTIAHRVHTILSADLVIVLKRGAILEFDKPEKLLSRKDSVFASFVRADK

`O=[N+]([O-])c1ccc(-c2[nH]nc(C(F)(F)F)c2[N+](=O)[O-])c([N+](=O)[O-])c1` displayed a Max response of 122%.
